Broadly, the IC50 is the concentration that gives 50% inhibition. A higher IC50 goes with weaker potency. By EC50 is commonly meant the concentration giving half of the maximal effect.

Amino acid sequences for entries named in this document (tags omitted).
UniProt P41143, whole entry, looked up: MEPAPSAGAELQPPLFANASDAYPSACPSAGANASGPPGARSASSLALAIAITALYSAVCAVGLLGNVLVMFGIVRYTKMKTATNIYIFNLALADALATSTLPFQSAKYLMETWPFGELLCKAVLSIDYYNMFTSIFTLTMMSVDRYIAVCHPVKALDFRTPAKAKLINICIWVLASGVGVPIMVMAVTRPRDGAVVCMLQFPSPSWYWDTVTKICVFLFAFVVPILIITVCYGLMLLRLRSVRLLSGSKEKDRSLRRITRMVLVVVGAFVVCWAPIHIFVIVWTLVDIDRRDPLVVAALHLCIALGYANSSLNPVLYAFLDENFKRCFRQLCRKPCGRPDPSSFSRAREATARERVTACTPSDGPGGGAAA
UniProt P35372, whole entry, looked up: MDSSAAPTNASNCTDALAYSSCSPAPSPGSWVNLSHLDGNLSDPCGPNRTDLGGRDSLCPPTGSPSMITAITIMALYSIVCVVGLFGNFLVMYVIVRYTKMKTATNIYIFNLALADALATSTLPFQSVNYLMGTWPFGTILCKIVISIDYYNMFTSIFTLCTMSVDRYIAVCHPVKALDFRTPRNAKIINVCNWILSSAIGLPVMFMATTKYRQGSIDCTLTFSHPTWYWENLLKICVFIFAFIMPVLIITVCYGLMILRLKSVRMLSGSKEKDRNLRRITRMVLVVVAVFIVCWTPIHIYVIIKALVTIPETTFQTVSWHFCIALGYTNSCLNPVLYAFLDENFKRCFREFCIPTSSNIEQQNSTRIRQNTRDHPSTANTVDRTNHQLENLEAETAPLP

For experiment [1], the target named is Delta-type opioid receptor (Homo sapiens, UniProt P41143). The settings on record: cho-k1.
A further experiment has as its target Mu-type opioid receptor (Homo sapiens, UniProt P35372). Conditions: cho-k1.

On to `CN(C)[C@]1(c2ccccc2)CC[C@]2(CC1)OCCc1c3cc(F)ccc3[nH]c12`, for which the half-inhibitory concentration (IC50) in experiment [1] stood at 3.77 nM. On Mu-type opioid receptor, this compound had a concentration giving a half-maximal response (EC50) of 11.3 nM.

(Values after ChEMBL document CHEMBL5506067, “Searching for Synthetic Opioid Rescue Agents: Identification of a Potent Opioid Agonist with Reduced Respiratory Depression” (J Med Chem, 2024).)
